These are literature values, as cited in US11285148B1 (King Abdulaziz University, priority 2021, dated 2022).

On to fluorescein isothiocyanate [FITC], for which the Solubility in water entry is recorded as “less than 0.1 mg/ml”.
